Assay results as given in BindingDB's records for US20240124427 (Idorsia Pharmaceuticals, 2024).

Sequences of proteins named here, by UniProt entry; tags and fusion partners are left off. Residues count along the entry.
UniProt P17931, 2-250 limits assumed: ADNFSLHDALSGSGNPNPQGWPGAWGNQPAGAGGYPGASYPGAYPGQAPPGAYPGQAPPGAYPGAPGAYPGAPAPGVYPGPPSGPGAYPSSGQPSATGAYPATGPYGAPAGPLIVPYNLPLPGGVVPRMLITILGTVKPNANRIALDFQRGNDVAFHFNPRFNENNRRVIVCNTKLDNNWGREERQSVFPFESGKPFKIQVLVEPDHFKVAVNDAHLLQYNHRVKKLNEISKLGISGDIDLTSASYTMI

Target: Galectin-3 (Homo sapiens, UniProt P17931)
Experiment: Spectrophotometric Assay

SMILES: CO[C@@H]1[C@@H](n2cc(-c3cc(F)c(F)c(F)c3)nn2)[C@@H](O)[C@@H](CO)O[C@H]1C(=O)N(c1cc(Br)cc(C#N)c1)[C@H]1CCNC[C@@H]1O
- IC50: 17 nM
